Our source for the IC50 values is article PMC6946680, “Modulation of brain cation-Cl^− cotransport via the SPAK kinase inhibitor ZT-1a” (Nature Communications, 2020).

For the assay, the target named is human SPAK 452-547(C-term) with WNK peptide (RFQV) (Homo sapiens, UniProt Q9UEW8). Description: Fluorescence polarization of SPAK–WNK peptide interaction. Particulars: read-out: IC50, decrease in fluorescence polarization (SPAK–WNK peptide); 10 nM Lumino-Green WNK peptide. The assay is classed as binding. Background: In fluorescence polarisation assays a small probe gives low polarisation when free and higher when bound to something large.

Regarding `CCN1/C(=C\C2=CC(=C/C=C/c3sc4ccccc4[n+]3CC)/CC(C)C2)Sc2ccccc21` (stereo not shown), the IC50 stood at 2510 nM.

By IC50 is commonly meant the concentration that inhibits the measured activity by half.
